Yeast mating assay B: variants of the scFv Ab-14

The measurements come from Li et al. 2023 (doi:10.1038/s41467-023-39022-2) through the FLAb antibody collection.

Target peptide (SARS-CoV-2 spike, HR2 region): PDVDLGDISGINAS

Parent scFv Ab-14: VH joined to VL by three GGGGS repeats. Changes lie in the heavy chain CDRs alone.
VH: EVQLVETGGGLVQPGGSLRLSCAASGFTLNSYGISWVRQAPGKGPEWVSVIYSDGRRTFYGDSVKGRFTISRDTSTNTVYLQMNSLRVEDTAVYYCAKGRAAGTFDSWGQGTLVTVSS
VL: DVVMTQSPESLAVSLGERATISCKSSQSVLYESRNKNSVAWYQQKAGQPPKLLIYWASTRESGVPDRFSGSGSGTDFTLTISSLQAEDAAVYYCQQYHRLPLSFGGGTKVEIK

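The variants were designed computationally from a first round of random CDR variants and then made and measured. Their group label is 14H_GPLM_Gen (GPLM: also part of the Gaussian process libraries; Gen: genetic algorithm; a sequence that several methods proposed may carry one label only). Affinity was read by AlphaSeq, a pooled yeast mating assay with surface-displayed partners. Mating (16 h, 30 °C) was followed by selection of diploids and sequencing of their barcodes. Each replicate has its own calibration line, from reference interactions of the BCL2 family. There are six technical replicates.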

The parent's heavy chain CDRs are GFTLNSYGIS, VIYSDGRRTFYGDSVK, GRAAGTFDS; each variant's own CDRs replace them letter for letter.
Values are log10 of the apparent Kd in nM; lower means stronger binding.
A pair that was not seen in that replicate is written "nd"; this usually means weak binding, but a binder can also be missed.
Of ten entries with the parent sequence, four were seen in most replicates (averages 0.34 to 2.37), three in one and three in none, so single entries are noisy.

| CDR-H1 | CDR-H2 | CDR-H3 | log10 Kd (nM) by replicate | empty controls |
|---|---|---|---|---|
| GFDLNSYGIS | VIYSDGQRTFYADSVK | GRAAGTFDS | 0.41 0.30 0.59 0.12 0.42 0.96 | 0/18 |
| GFTLNSYGIS | VIYSDGRRTFYSDSVK | GNEAGTFDS | -0.37 -0.33 -0.61 -0.45 -0.70 0.22 | 0/18 |
| KFTLNSYGIS | VIYSDGRRTFYADSVK | GRTAGTFDS | 0.25 0.66 0.01 -0.30 0.56 0.52 | 0/18 |
| GFTLNSYGIS | VIYSDGRRTFYGDSVK | GNEAGTFDT | 2.13 1.86 1.33 1.97 1.70 1.61 | 1/18 (2.37) |
| GFTLNSYGIS | VIYSDGRRTFYGDSVK | GTEAGTFDT | -0.41 -0.41 -0.74 -0.37 -0.91 -0.38 | 0/18 |
| GFSLNSYGIS | VIYSDGRRTFYADSVK | GRTAGTFDG | 0.19 -0.11 0.57 0.34 0.08 0.17 | 0/18 |
| GFTLNSYGIS | VIYADGRRTFYGDSVK | GRAAGTFDQ | 0.19 0.52 0.26 -0.20 -0.02 0.36 | 0/18 |
| GFALNEYGIS | VIYSDGRRTFYADSVK | GRTAGTFDS | -0.04 0.20 0.06 0.11 0.39 0.32 | 0/18 |
| SFSLNSYGIS | VIYSDGRRTFYADSVK | GRAAGTFDS | 2.32 0.72 0.86 2.62 1.57 1.17 | 2/18 (1.82) |
| GFSLNSYGIS | VIYSDGRRTFYADSVK | GEAAGTFDL | 1.19 0.60 0.89 0.52 0.89 1.06 | 1/18 (1.36) |
| GFSLNSYGIS | VIYSDGRRTFYIDSVK | GKTAGTFDS | nd 0.51 nd nd 1.50 1.06 | 0/18 |
| GFSLNSYGIS | VIYSDGRRSFYGDSVK | GEAAGTFDS | 0.72 0.35 0.46 1.04 1.70 1.56 | 0/18 |
| GFTLNSYGIS | VIYSDGQRTFYADSVK | GRVAGTFDS | 1.83 0.54 -0.16 1.16 0.58 0.39 | 0/18 |
| GFSLNSYGIS | VIYSDGRRTFYGDSVK | GSTAGTFDS | 1.07 0.75 0.47 0.14 0.25 0.43 | 2/18 (2.30) |
| GFTLNSYGIS | VIYSDGRRTFYGDSVK | GKTAGTFDS | 1.68 1.46 2.30 1.57 1.43 1.20 | 0/18 |
| GFSLNEYGIS | VIYSDGRRTFYGDSVK | GRAAGTFDR | -0.28 -0.32 -0.33 -0.34 -0.24 -0.03 | 0/18 |
| GFSLNSYGIS | VIYSDGRRTFYGDSVK | GEAAGTFDN | 0.35 0.31 0.21 0.16 0.22 0.51 | 0/18 |
| GFQLNEYGIS | VIYSDGRRTFYGDSVK | GNAAGTFDS | 0.34 0.09 0.10 0.11 0.08 0.43 | 1/18 (3.34) |
| GFGLNEYGIS | VIYSDGRRTFYKDSVK | GRTAGTFDS | -0.17 -0.56 -0.19 -0.69 -0.10 0.39 | 0/18 |
| GFSLNSYGIS | VIYSDGRRTFYADKVK | GEAAGTFDS | 1.27 1.07 0.55 1.18 0.75 0.82 | 0/18 |
| GFSLNSYGIS | VIYSDGRRTFYADSVK | GQTAGTFDT | 0.00 0.18 0.70 0.95 -0.92 0.18 | 0/18 |
| GFTLNDYGIS | VIYSDGRRTFYGDSVK | GRTAGTFVS | 0.90 nd nd 2.01 2.88 3.43 | 0/18 |
| GFSLNDYGIS | VIYSDGRRTFYGDSVK | GRIAGTFDS | 0.43 0.18 0.19 0.03 0.09 0.51 | 1/18 (2.39) |
| GFTLNSYGIS | VIYADGRRTFYGDSVK | GRTAGTFDS | 1.53 1.28 1.11 1.25 1.59 2.64 | 1/18 (1.70) |
| GFNLNSYGIS | VIYSDGRRTFYADSVK | GQAAGTFDK | nd -0.15 nd 0.69 1.14 0.78 | 2/18 (0.54) |
| GFSLNSYGIS | VIYSDGRRTFYKDSVK | GRTAGTFDS | 0.36 0.21 0.38 0.46 0.26 0.48 | 1/18 (2.35) |
| GFELNSYGIS | VIYSDGRRTFYADEVK | GRTAGTFDS | 0.41 0.53 -0.01 1.95 1.05 0.74 | 0/18 |
| GFSLNSYGIS | VIYSDGRRTFYADSVK | GHAAGTFDN | nd 0.36 1.42 1.15 2.19 nd | 0/18 |
| GFTLNSYGIS | VIYSDGVRTFYADSVK | GRAAGTFDS | 1.16 1.81 1.00 1.29 0.87 1.22 | 0/18 |
| GFSLNDYGIS | VIYSDGRRTFYDDSVK | GRAAGTFDS | 0.04 -0.26 -0.02 -0.49 -0.20 -0.25 | 1/18 (4.17) |
| KFSLNNYGIS | VIYSDGRRTFYGDSVK | GRTAGTFDS | nd nd nd nd nd nd | 0/18 |
| GFSLNSYGIS | VIYSDGRRTFYGDSVK | GSQAGTFDS | nd nd nd nd nd 2.98 | 0/18 |
| GFSLNSYGIS | VIYSDGKRTFYADNVK | GRAAGTFDS | 0.68 0.52 0.16 0.34 0.32 0.12 | 0/18 |
| MFSLNEYGIS | VIYSDGRRTFYGDSVK | GRTAGTFDS | 0.75 0.35 0.31 0.96 0.65 0.18 | 0/18 |
| GFTLNSYGIS | VIYSDGRRTFYGDSVK | GRVAGTFDM | nd 1.90 nd 1.56 nd nd | 0/18 |
| GFGLNEYGIS | VIYSDGRRTFYGDSVK | GQAAGTFDL | 0.74 1.06 0.59 0.04 0.60 0.97 | 0/18 |
| GFGLNEYGIS | VIYSDGRRTFYADSVK | GRAAGTFDS | -0.06 -0.17 0.01 0.04 0.10 -0.09 | 0/18 |

Repeated from above, the 5 best binders with a signal in all replicates:

| CDR-H1 | CDR-H2 | CDR-H3 | log10 Kd (nM) by replicate | empty controls |
|---|---|---|---|---|
| GFTLNSYGIS | VIYSDGRRTFYGDSVK | GTEAGTFDT | -0.41 -0.41 -0.74 -0.37 -0.91 -0.38 | 0/18 |
| GFTLNSYGIS | VIYSDGRRTFYSDSVK | GNEAGTFDS | -0.37 -0.33 -0.61 -0.45 -0.70 0.22 | 0/18 |
| GFSLNEYGIS | VIYSDGRRTFYGDSVK | GRAAGTFDR | -0.28 -0.32 -0.33 -0.34 -0.24 -0.03 | 0/18 |
| GFGLNEYGIS | VIYSDGRRTFYKDSVK | GRTAGTFDS | -0.17 -0.56 -0.19 -0.69 -0.10 0.39 | 0/18 |
| GFSLNDYGIS | VIYSDGRRTFYDDSVK | GRAAGTFDS | 0.04 -0.26 -0.02 -0.49 -0.20 -0.25 | 1/18 (4.17) |

Background: pairings of all heavy chain designs with three empty control strains gave a value in 1% of cases (median 2.08, 5th percentile 0.84). Values in that range, when seen in few replicates, are hard to tell from nonspecific mating. For each scFv, signals with the empty controls are counted beside the result, with their mean in brackets.
In the paper, a design with two or fewer of six values counts as a poor binder.
The range of this assay differs from that of the first round, and the authors advise against merging the two.